Among the data in ChEMBL document CHEMBL1126858, “Synthesis of (R,S)-trans-8-hydroxy-2-[N-n-propyl-N-(3'-iodo-2'-propenyl)amino]tetral in (trans-8-OH-PIPAT): a new 5-HT1A receptor ligand” (J Med Chem, 1993) are Ki values, retold here.

Protein sequences, listed by entry. Tags and fused reporters are not part of them.
UniProt P19327, whole entry: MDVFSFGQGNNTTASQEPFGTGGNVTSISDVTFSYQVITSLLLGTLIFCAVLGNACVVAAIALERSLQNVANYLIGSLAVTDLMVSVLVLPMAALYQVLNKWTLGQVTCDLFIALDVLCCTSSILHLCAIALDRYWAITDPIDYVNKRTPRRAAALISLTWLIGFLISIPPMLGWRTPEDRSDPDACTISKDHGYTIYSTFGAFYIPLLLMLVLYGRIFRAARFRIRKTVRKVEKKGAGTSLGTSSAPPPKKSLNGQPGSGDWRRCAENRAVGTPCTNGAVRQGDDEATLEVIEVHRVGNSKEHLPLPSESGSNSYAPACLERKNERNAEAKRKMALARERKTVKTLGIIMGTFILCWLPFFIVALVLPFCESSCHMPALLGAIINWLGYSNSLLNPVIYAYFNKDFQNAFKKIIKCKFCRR

The test deals with 5-hydroxytryptamine receptor 1A (Rattus norvegicus, UniProt P19327). Kind of test: Binding affinity towards 5-hydroxytryptamine 1A receptor by the displacement of [125I]trans-8-OH-PIPAT in membrane homogenates of hippocampal tissue of rat brain. In kind it is tissue-based, Hippocampus. For orientation: In a radioligand displacement assay an active substance lowers the binding of a labelled ligand.

In turn, `O=C(c1ccc(F)cc1)C1CCN(CCn2c(=O)[nH]c3ccccc3c2=O)CC1` [KETANSERIN] showed a Ki of 1820 nM.

In general, Ki refers to the equilibrium dissociation constant of an inhibitor or competing ligand from its target. High values mean a looser hold on the target, low ones a stronger hold on the target.
